Reference: patent US5030451A, “Topical slenderizing formulation containing cafeine carboxylic acid derivatives neutralized by organic bases, preparation thereof, and their use in the treatment of cellulite” (Pierre Fabre S.A., priority 1988, dated 1991)

Key:
[1] = in water
[2] = carbon 14 labelled; salifying agent is an organic base

| Substance | Solubility [1] [%] | rate of transcutaneous passage [2] |
| --- | --- | --- |
| 3-nicotinol caffeine carboxylate [Preparation 1] | 2 | faster |
| Creatinol caffeine carboxylate [Preparation 5] | 12 | – |
